# From US20100028358A1, “Compositions and Methods for Controlling Tissue Factor Signaling Specificity” (priority 2005, published 2010)
# Chains of the proteins cited; added tags and fusions are not shown. Residues count along the entry.
# UniProt P13726, 33-295 limits assumed: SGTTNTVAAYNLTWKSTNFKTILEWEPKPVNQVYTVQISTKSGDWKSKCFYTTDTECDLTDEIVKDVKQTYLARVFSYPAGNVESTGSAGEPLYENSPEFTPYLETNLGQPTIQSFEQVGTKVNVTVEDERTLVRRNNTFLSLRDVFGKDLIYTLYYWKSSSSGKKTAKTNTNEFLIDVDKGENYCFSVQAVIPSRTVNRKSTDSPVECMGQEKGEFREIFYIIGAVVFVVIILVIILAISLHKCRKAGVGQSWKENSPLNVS
# Molecular target: tissue factor (TF) coagulant activity (Homo sapiens, UniProt P13726)
# Assay: TF coagulant activity (Xa generation) on HaCaT cells
# Conditions: 1 mM agent, 10 minutes prior to Xa generation assay; PAO 10 μM
substance,measurement,value
sodium nitroprusside,TF coagulant activity after Hg2+-induced activation and washout,no effect on TF activity

# Some compounds may have been tested in ways that are not shown here.
